In patent US20220273643A1, “METHOD OF TREATING KRAS-ASSOCIATED CANCERS” (THE REGENTS OF THE UNIVERSITY OF MICHIGAN, priority 2019, published 2022):

Tested on: UMSCC74B
Assay type: in vivo
Details: UMSCC74B tumor-bearing mice; DGD1202 30 mg/kg oral gavage; cetuximab 100 mg/kg (FIG. 1); P<0.001 for DGD1202
Procedure: FIG. 1 depicts the effect of DGD1202 in mutant KRAS (and EGFR co-driven) head and neck (UMSCC74B) tumor model. KRAS driven UMSCC74B xenografts bearing nude mice were treated with vehicle, cetuximab (100 mg/kg, Monday), or DGD1202 (30 mg/kg, Mon-Fri) for 2 weeks and effect on tumor growth was measured and plotted.
Tumor-bearing mice were treated with DGD1202 via oral gavage in 30 mg/kg dose biweekly for one week. This dose was selected based on its single-dose PK profile.

“cetuximab: anti-EGFR antibody, a known EGFR inhibitor [reference compound]” was tested, and the tumor growth was “failed to exhibit meaningful efficacy”.
